The numbers were not newly measured in paper PMC5986796, which cites them from elsewhere.

Sequences of proteins named here, by UniProt entry; tags and fusion partners are left off. Residues count along the entry.
UniProt P19235, 25-250: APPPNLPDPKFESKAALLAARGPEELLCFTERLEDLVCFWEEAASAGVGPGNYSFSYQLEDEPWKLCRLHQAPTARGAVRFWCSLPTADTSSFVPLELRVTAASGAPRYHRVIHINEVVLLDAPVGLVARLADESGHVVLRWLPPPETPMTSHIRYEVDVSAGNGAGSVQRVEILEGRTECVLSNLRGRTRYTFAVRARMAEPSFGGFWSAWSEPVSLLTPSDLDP

As usually defined, the pKd is −log10 of the Kd, conventionally taken in molar units.

pKd: −log10 of the molar value.

The series deals with Erythropoietin receptor (site 1) (Homo sapiens) (UniProt P19235).

Take Erythropoietin (from UniProt P01588): the pKd was 9.00.
